Measurements from patent US10696677B2 (Research Triangle Institute, priority 2016, dated 2020).
pKi: −log10 of the molar value. Read-outs that look alike come from different tables or passages of the source.

Amino acid sequences for entries named in this document (tags omitted).
UniProt P21554, whole entry: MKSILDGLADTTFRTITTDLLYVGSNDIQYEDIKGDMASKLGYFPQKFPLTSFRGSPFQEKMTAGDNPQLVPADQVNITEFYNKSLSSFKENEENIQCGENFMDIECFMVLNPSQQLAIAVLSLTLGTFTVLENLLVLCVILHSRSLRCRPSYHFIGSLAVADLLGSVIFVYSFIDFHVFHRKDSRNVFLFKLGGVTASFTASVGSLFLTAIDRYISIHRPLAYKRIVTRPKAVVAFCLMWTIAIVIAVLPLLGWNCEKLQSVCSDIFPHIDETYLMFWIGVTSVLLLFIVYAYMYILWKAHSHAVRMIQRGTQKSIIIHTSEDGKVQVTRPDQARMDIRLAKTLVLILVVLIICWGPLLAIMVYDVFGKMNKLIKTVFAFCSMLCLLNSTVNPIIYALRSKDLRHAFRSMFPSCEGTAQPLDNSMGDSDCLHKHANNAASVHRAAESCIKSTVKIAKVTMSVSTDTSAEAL
UniProt P34972, whole entry: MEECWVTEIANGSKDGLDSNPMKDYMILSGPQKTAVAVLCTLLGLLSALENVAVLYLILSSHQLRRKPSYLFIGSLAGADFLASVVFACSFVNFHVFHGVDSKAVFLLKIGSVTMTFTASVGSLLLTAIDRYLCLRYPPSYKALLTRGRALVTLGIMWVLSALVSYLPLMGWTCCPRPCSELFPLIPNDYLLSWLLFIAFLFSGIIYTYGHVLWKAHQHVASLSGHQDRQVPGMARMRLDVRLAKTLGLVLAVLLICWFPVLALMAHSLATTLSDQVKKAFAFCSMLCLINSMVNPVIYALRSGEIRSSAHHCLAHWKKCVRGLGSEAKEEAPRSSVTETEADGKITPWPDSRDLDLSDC

Columns and labels:
hCB1 [1] = target: T1, hCB1 (Homo sapiens, UniProt P21554); assay: radioligand displacement binding at CB1 (membranes of CHO-K1 cells over-expressing receptor); conditions: for CB2 Ki/CB1 Ki selectivity ratio: CB1 versus CB2
hCB1 [2] = target: T1, hCB1; assay: functional fluorescent CB1 activated Gαq16-coupled intracellular calcium mobilization assay in CHO-K1 cells; format: cell-based; parameters: expressed in transfected cells; host or cells: CHO-K1 (membranes)
hCB2 = hCB2 (Homo sapiens, UniProt P34972); assay: radioligand displacement binding at CB2 ([3H]CP55940, membranes of CHO-K1 cells over-expressing receptor)
MDCK = MDCK BBB Assay; format: in vitro ADME; conditions: MDCK cells
[3] = read-out: Binding affinity (Ki) at hCB1, radioligand displacement, CHO-K1 membranes, average of 3-6 measurements
[4] = calcium mobilization, CHO-K1 cells, average of 3-6 measurements, read-out: Apparent antagonist dissociation constant (Ke) at hCB1
[5] = displacement of [3H]CP55940, CHO-K1 membranes, average of 3-6 measurements
[6] = read-out: Binding affinity (Ki) at hCB2, displacement of [3H]CP55940, CHO-K1 membranes, average of 3-6 measurements

| SMILES | pKi (hCB1 [1]; [3]) | Kb (hCB1 [2]; [4]) | pKi (hCB2) | CB2 Ki/CB1 Ki selectivity ratio (hCB1 [1]) | MDCK BBB Assay (Basolateral/Apical Peak Area Ratio) Mean (MDCK) | Kb (hCB1 [2]) | pKi (hCB1 [1]) | Binding affinity (Ki) at hCB2 (hCB2; [5]) | pKi (hCB2; [6]) |
| --- | --- | --- | --- | --- | --- | --- | --- | --- | --- |
| O=C(Nc1ccccc1)NC1CCN(c2ncnc3c2nc(-c2ccccc2Cl)n3-c2ccc(Cl)cc2)CC1 [Compound 18, 3-{1-[8-(2-Chlorophenyl)-9-(4-chlorophenyl)-9H-purin-6-yl]piperidin-4-yl}-1-phenylurea] | 8.15 | 30 nM | < 5.30 | – | – | – | – | – | – |
| O=C(Nc1ccccc1F)NC1CCN(c2ncnc3c2nc(-c2ccccc2Cl)n3-c2ccc(Cl)cc2)CC1 [Compound 19, 3-{1-[8-(2-Chlorophenyl)-9-(4-chlorophenyl)-9H-purin-6-yl]piperidin-4-yl}-1-(2-fluorophenyl)urea] | 8.40 | – | 4.77 | 4200 | 0.001 | 52 nM | – | – | – |
| O=C(Nc1ccc(F)cc1)NC1CCN(c2ncnc3c2nc(-c2ccccc2Cl)n3-c2ccc(Cl)cc2)CC1 [Compound 23, 3-{1-[8-(2-Chlorophenyl)-9-(4-chlorophenyl)-9H-purin-6-yl]piperidin-4-yl}-1-(4-fluorophenyl)urea] | 7.66 | – | 5.09 | – | – | 45 nM | – | – | – |
| O=C(Nc1ccc(C(F)(F)F)nc1)NC1CCN(c2ncnc3c2nc(-c2ccccc2Cl)n3-c2ccc(Cl)cc2)CC1 [Compound 24, 3-{1-[8-(2-Chlorophenyl)-9-(4-chlorophenyl)-9H-purin-6-yl]piperidin-4-yl}-1-[6-(trifluoromethyl)pyridin-3-yl]urea] | – | 37 nM | < 5.15 | >250 | – | – | 7.55 | – | – |
| Clc1ccc(-n2c(-c3ccccc3Cl)nc3c(N4CCN(C5CCCCC5)CC4)ncnc32)cc1 [Compound 66, 8-(2-Chlorophenyl)-9-(4-chlorophenyl)-6-(4-cyclohexylpiperazin-1-yl)-9H-purine] | – | 17 nM | 6.95 | – | – | – | 8.74 | – | – |
| Clc1ccc(-n2c(-c3ccccc3Cl)nc3c(N4CCN(c5ccccn5)CC4)ncnc32)cc1 [Compound 67, 8-(2-Chlorophenyl)-9-(4-chlorophenyl)-6-(4-pyridin-2-ylpiperazin-1-yl)-9H-purine] | – | 13 nM | 5.57 | 1136 | 0.001 | – | 8.62 | – | – |
| N#Cc1ccccc1CN1CCN(c2ncnc3c2nc(-c2ccccc2Cl)n3-c2ccc(Cl)cc2)CC1 [Compound 75, 6-[4-(2-Cyanobenzyl)piperazin-1-yl]-8-(2-chlorophenyl)-9-(4-chlorophenyl)-9H-purine] | 8.52 | 21 nM | 4.70 | 6700 | – | – | – | – | – |
| Fc1ccccc1CN1CCN(c2ncnc3c2nc(-c2ccccc2Cl)n3-c2ccc(Cl)cc2)CC1 [Compound 96, 8-(2-Chlorophenyl)-9-(4-chlorophenyl)-6-[4-(2-fluorobenzyl)piperazin-1-yl]-9H-purine] | – | 0.9 nM | 5.65 | – | – | – | 8.17 | – | – |
| Fc1ccc(CN2CCN(c3ncnc4c3nc(-c3ccccc3Cl)n4-c3ccc(Cl)cc3)CC2)cc1 [Compound 97, 8-(2-Chlorophenyl)-9-(4-chlorophenyl)-6-[4-(4-fluorobenzyl)piperazin-1-yl]-9H-purine] | – | – | – | – | – | 1.5 nM | 8.44 | inactive | – |
| Clc1ccc(-n2c(-c3ccccc3Cl)nc3c(N4CCN(Cc5ccccc5Cl)CC4)ncnc32)cc1 [Compound 98, 6-[4-(2-Chlorobenzyl)piperazin-1-yl]-8-(2-chlorophenyl)-9-(4-chlorophenyl)-9H-purine] | – | – | 6.11 | – | – | – | – | – | – |
| Clc1ccc(-n2c(-c3ccccc3Cl)nc3c(N4CCN(Cc5cccc(Cl)c5)CC4)ncnc32)cc1 [Compound 99, 6-[4-(3-Chlorobenzyl)piperazin-1-yl]-8-(2-chlorophenyl)-9-(4-chlorophenyl)-9H-purine] | – | – | 7.27 | – | – | – | – | – | – |
| Cc1ccc(CN2CCN(c3ncnc4c3nc(-c3ccccc3Cl)n4-c3ccc(Cl)cc3)CC2)cc1 [Compound 101, 8-(2-Chlorophenyl)-9-(4-chlorophenyl)-6-[4-(4-methylbenzyl)piperazin-1-yl]-9H-purine] | – | – | – | – | – | – | – | inactive | – |
| COc1ccc(CN2CCN(c3ncnc4c3nc(-c3ccccc3Cl)n4-c3ccc(Cl)cc3)CC2)cc1 [Compound 102, 8-(2-Chlorophenyl)-9-(4-chlorophenyl)-6-[4-(4-methoxybenzyl)piperazin-1-yl]-9H-purine] | – | – | – | – | – | – | – | inactive | – |
| Clc1ccc(-n2c(-c3ccccc3Cl)nc3c(N4CCN(Cc5ccncc5)CC4)ncnc32)cc1 [Compound 105, 8-(2-Chlorophenyl)-9-(4-chlorophenyl)-6-[4-(pyridin-4-ylmethyl)piperazin-1-yl]-9H-purine] | – | 6 nM | – | – | – | – | 7.65 | – | 5.76 |
| CC(c1ccncc1)N1CCN(c2ncnc3c2nc(-c2ccccc2Cl)n3-c2ccc(Cl)cc2)CC1 (centres unmarked) [Compound 106, 8-(2-Chlorophenyl)-9-(4-chlorophenyl)-6-[4-(1-pyridin-4-ylethyl)piperazin-1-yl]-9H-purine] | 7.92 | 0.5 nM | 5.95 | – | – | – | – | – | – |
| FC(F)(F)c1ccccc1CN1CCN(c2ncnc3c2nc(-c2ccccc2Cl)n3-c2ccc(Cl)cc2)CC1 [Compound 111, 8-(2-Chlorophenyl)-9-(4-chlorophenyl)-6-{4-[2-(trifluoromethyl)benzyl]piperazin-1-yl}-9H-purine] | 8.30 | 5 nM | < 4.30 | >10000 | – | – | – | – | – |
| Clc1ccc(-n2c(-c3ccccc3Cl)nc3c(N4CCN(Cc5ccncc5Cl)CC4)ncnc32)cc1 [Compound 113, 8-(2-chlorophenyl)-9-(4-chlorophenyl)-6-(4-[(3-chloropyridin-4-yl)methyl]piperazin-1-yl}-9H-purine] | 8.52 | 3 nM | 4.42 | 13000 | – | – | – | – | – |
| Cc1c(CN2CCN(c3ncnc4c3nc(-c3ccccc3Cl)n4-c3ccc(Cl)cc3)CC2)cnn1C [Compound 114, 8-(2-Chlorophenyl)-9-(4-chlorophenyl)-6-{4-[(1,5-dimethyl-1H-pyrazol-4-yl)methyl]piperazin-1-yl}-9H-purine] | 8.10 | 42 nM | – | 120 | – | – | – | – | 6.00 |
| Cc1nc(CN2CCN(c3ncnc4c3nc(-c3ccccc3Cl)n4-c3ccc(Cl)cc3)CC2)no1 [Compound 115, 8-(2-Chlorophenyl)-9-(4-chlorophenyl)-6-{4-[(5-methyl-1,2,4-oxadiazol-3-yl)methyl]piperazin-1-yl}-9H-purine] | 7.62 | 12 nM | – | 150 | – | – | – | – | 5.44 |
| O=C(NC1CCN(c2ncnc3c2nc(-c2ccccc2Cl)n3-c2ccc(Cl)cc2)CC1)NC1CCC(F)(F)CC1 [Compound 124, 3-{1-[8-(2-Chlorophenyl)-9-(4-chlorophenyl)-9H-purin-6-yl]piperidin-4-yl}-1-(4,4-difluorocyclohexyl)urea] | 7.74 | 79 nM | < 5.00 | >500 | – | – | – | – | – |
| O=C(NCc1ccc(F)cc1)NC1CCN(c2ncnc3c2nc(-c2ccccc2Cl)n3-c2ccc(Cl)cc2)CC1 [Compound 128, 3-{1-[8-(2-Chlorophenyl)-9-(4-chlorophenyl)-9H-purin-6-yl]piperidin-4-yl}-1-[(4-fluorophenyl)methyl]urea] | 8.52 | 51 nM | < 5.30 | >1600 | – | – | – | – | – |
| CC1(NC(=O)NS(=O)(=O)c2ccccc2F)CCN(c2ncnc3c2nc(-c2ccccc2Cl)n3-c2ccc(Cl)cc2)CC1 [Compound 129, 3-{1-[8-(2-Chlorophenyl)-9-(4-chlorophenyl)-9H-purin-6-yl]-4-methylpiperidin-4-yl}-1-[(2-fluorobenzene)sulfonyl]urea] | 6.92 | 7 nM | < 5.00 | >80 | – | – | – | – | – |
